The text below walks through data of US20230233650A1, “NOVEL FATTY ACID MODIFIED UROCORTIN 2 DERIVATIVES AND THE USES THEREOF” (Novo Nordisk A/S, priority 2021, published 2023).

In general, EC50 refers to the concentration giving half of the maximal effect.

In this test the target is T1, Human CRF1 receptor (Homo sapiens, UniProt P34998).
T1 construct: host or cells: CHO-K1 (membrane preparation)
T1 sequence (P34998 24-415): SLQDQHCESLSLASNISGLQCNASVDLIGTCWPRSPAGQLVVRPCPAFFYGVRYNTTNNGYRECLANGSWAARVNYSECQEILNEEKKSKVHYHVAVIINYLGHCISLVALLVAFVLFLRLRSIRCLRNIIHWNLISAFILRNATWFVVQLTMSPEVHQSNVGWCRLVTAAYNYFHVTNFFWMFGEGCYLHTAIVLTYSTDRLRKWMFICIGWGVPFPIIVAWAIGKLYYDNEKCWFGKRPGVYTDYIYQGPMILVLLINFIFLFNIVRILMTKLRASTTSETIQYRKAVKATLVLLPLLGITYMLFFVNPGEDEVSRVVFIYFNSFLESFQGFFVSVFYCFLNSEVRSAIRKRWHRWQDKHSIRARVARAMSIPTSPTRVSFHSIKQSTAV
The experiment in a line: CRF1 receptor CHO cell β-Arrestin recruitment assay (PathHunter). It is filed as cell-based. The following applies: CHO-K1 cells, 0.1% ovalbumin. The method, then:
The purpose of this investigation was to test the in vitro agonistic activity (potency) of the compounds of the invention to receptor subtype CRF1 and CRF2. […] The native, human Ucn1 and Ucn2 peptides were included as references. Assay principle: Activated G-protein coupled receptors (GPCRs) can interact with the Arrestin family of signalling proteins. The potency of peptides for CRF induced Arrestin recruitment is determined using the PathHunter Enzyme Fragment Complementation approach substantially as described in von […] et al., FASEB J., 2007, 3819, 26 and Hamdouchi et al., J. Med. Chem., 2016, 59, 10891-10916. The target GPCR is tagged with the small fragment of β-gal called ProLinkTM, a low affinity version of enzyme donor and co-expressed in cells stably expressing β-Arrestin tagged with enzyme acceptor. Activation of the GPCR stimulates binding of β-Arrestin to the ProLink-tagged GPCR, forcing complementation of ProLink and enzyme acceptor, resulting in the formation of an active β-gal enzyme. The resulting active enzyme hydrolyses substrate present in the PathHunter detection reagents to generate light. […] Plates were first incubated for 90 minutes in a 37° C., 5% CO2 incubator and then 5 μL of PathHunter detection reagent was added (DiscoveRx, 93-0001) and the plates were incubated at room temperature for 60 minutes after which the luminescence signal was measured (BMG […]). […]
(Arrestin recruitment assays detect the binding of arrestin to an activated receptor.)

Where only a bound is given, the exact number is not on record here.

Regarding `CC[C@H](C)[C@H](N)C(=O)N[C@H](C(=O)N[C@@H](CC(C)C)C(=O)N[C@@H](CO)C(=O)N[C@@H](CC(C)C)C(=O)N[C@@H](CC(=O)O)C(=O)N[C@H](C(=O)N1CCC[C@H]1C(=O)N[C@H](C(=O)NCC(=O)N[C@@H](CC(C)C)C(=O)N[C@@H](CC(C)C)C(=O)N[C@@H](CCC(N)=O)C(=O)N[C@H](C(=O)N[C@@H](CC(C)C)C(=O)N[C@@H](CC(C)C)C(=O)N[C@@H](CCC(=O)O)C(=O)N[C@@H](CCC(N)=O)C(=O)N[C@@H](C)C(=O)N[C@@H](CCCNC(=N)N)C(=O)N[C@@H](C)C(=O)N[C@@H](CCCNC(=N)N)C(=O)N[C@@H](C)C(=O)N[C@@H](C)C(=O)N[C@@H](CCCNC(=N)N)C(=O)N[C@@H](CCC(=O)O)C(=O)N[C@@H](CCC(N)=O)C(=O)N[C@@H](C)C(=O)N[C@H](C(=O)N[C@H](C(=O)N[C@@H](CC(N)=O)C(=O)N[C@@H](C)C(=O)N[C@@H](CCCNC(=N)N)C(=O)N[C@H](C(=O)N[C@@H](CC(C)C)C(=O)N[C@@H](C)C(=O)N[C@@H](CCCNC(=N)N)C(=O)N[C@H](C(N)=O)C(C)C)[C@@H](C)CC)[C@@H](C)O)[C@@H](C)O)[C@@H](C)CC)[C@@H](C)CC)C(C)C)C(C)C` [Compound 2], the EC50 is greater than 10 µM.
